## scFv variants of Ab-14 (light chain) against a SARS-CoV-2 spike peptide

All variants were tested on one target, the spike HR2 peptide PDVDLGDISGINAS (SARS-CoV-2).

Each scFv is VH, a 15-residue (Gly4Ser)3 linker, VL, as in the parent Ab-14, and differs from it in the CDRs of the light chain only.
VH: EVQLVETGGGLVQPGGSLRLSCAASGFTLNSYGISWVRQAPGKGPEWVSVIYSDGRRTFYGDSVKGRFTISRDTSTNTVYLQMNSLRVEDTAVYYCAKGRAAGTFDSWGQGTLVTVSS
VL: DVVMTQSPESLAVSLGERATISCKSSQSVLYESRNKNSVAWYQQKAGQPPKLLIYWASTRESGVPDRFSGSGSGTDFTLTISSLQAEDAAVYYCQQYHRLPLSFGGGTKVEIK

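The library (AAYL50) carries one to three amino acid substitutions per variant, with no insertions or deletions. AlphaSeq pools MATa yeast showing the antibodies with MATalpha yeast showing the peptide. The frequency of each diploid, read from paired DNA barcodes, reflects how well the two displayed proteins bind. Each replicate has its own calibration line, from reference interactions of the BCL2 family. There are three technical replicates.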

Positions count from residue 1 of the parent VL; S25L puts L in place of S.
Every variant below is changed at S25 of the VL (sequential numbering).
The Kd shown is the geometric mean over detected replicates; a lower Kd is a better binder.
"nd" marks a missing value. The strain was present, yet no cells mated with the target were sequenced in any replicate, which points to weak or no binding.
The list is sorted by this average, lowest first, undetected variants last.
Parent in this assay: reference entry 4.4 nM, copy in this library 48 nM.

For S25L/S103E, the assay gave 870 pM (3 of 3 replicates; controls 6 of 9).
For S25V/N35F, the assay gave 1.4 nM (3 of 3 replicates; controls 1 of 9).
For S25F/Y97L, the assay gave 7.1 nM (3 of 3 replicates; controls 4 of 9).
For S25T/S26F/Y31L, the assay gave 9.8 nM (3 of 3 replicates; controls 1 of 9).
For S25W/L30C/S33A, the assay gave 26 nM (3 of 3 replicates; controls 1 of 9).
For S25A/L30A/S38D, the assay gave 31 nM (3 of 3 replicates; controls 0 of 9).
For S25P, the assay gave 140 nM (3 of 3 replicates; controls 1 of 9).
For S25D/V39Y/S58E, the assay gave 190 nM (3 of 3 replicates; controls 2 of 9).
For S25I/S26I/S38D, the assay gave 560 nM (2 of 3 replicates; controls 1 of 9).
For S25N/S38P/S62L, the assay gave 1.3 µM (2 of 3 replicates; controls 2 of 9).
For S25E/R99S/P101Q, the assay gave 1.6 µM (2 of 3 replicates; controls 4 of 9).
For S25P/S28L/S33Y, the assay gave 2.1 µM (1 of 3 replicates; controls 1 of 9).
For S25I/V39A/R60M, the assay gave 42 µM (1 of 3 replicates; controls 2 of 9).
For S25Q/W56S/R60N, the assay gave 95 µM (3 of 3 replicates; controls 7 of 9).
For S25A/E32C/A40G, the assay gave 140 µM (2 of 3 replicates; controls 3 of 9).
For S25K/K36S, the assay gave 580 µM (1 of 3 replicates; controls 1 of 9).
For S25G/R60S/E61Y, the assay gave nd (0 of 3 replicates; controls 0 of 9).

Background: pairings of library AAYL50 with three empty control strains gave a value in 18% of cases (median 15 µM, 5th percentile 970 nM). Values in that range, when seen in few replicates, are hard to tell from nonspecific mating. The control count says in how many pairings with the empty strains this scFv gave a signal.

Data: MIT Lincoln Laboratory AlphaSeq set, Engelhart et al. 2022, doi:10.1038/s41597-022-01779-4, as distributed in FLAb.